Assay results published in US7955808B2, “Bitter taste receptors” (Deutsches Institut für Ernährungsorschung, Stiftung des …, priority 2002, dated 2011).

Amino acid sequences for entries named in this document (tags omitted).
UniProt P59538, whole entry L162M: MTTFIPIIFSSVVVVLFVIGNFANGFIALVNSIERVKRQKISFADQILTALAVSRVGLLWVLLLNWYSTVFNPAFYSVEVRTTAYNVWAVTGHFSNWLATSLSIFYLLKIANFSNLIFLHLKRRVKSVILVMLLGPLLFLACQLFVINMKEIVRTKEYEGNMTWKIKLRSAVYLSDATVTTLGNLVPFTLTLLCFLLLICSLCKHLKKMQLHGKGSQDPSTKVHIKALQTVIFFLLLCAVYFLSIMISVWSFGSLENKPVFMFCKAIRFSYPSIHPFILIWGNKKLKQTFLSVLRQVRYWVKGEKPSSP

Target: hTAS2R44 (Homo sapiens, UniProt P59538, L162M)
Assay: cell-based
Text: These cells stably express a chimeric G protein constructed from human Gα16 and rat gustducin. Finally, we seeded the transfected cells at a density of 3×10^3 cells per well into 96-well black-wall, clear-bottom microtiter plates (Greiner).
Co-transfection of TAS2Rs with gustducin and phospholipase-Cβ2 into HEK-293 cells. Alternatively, we transfected simultaneously plasmid DNAs encoding one of the TAS2Rs, phospholipase-Cβ2 and α-gustducin into HEK-293 cells using the lipofectamine method. […] Thereafter, the transfected cells were seeded at a density of 3×10^3 cells per well into 96-well black-wall, clear-bottom microtiter plates (Greiner).
Thereafter, cells were gently washed in HBS by an automated plate washer (Denley Cellwash, Labsystenms) and transferred to the FLIPR (Molecular Devices). The FLIPR integrates an argon laser excitation source, a 96-well pipettor, and a detection system utilizing a Charged Coupled Device imaging camera. […] Fluorescence data were collected 1 min before and 10 min after stimulation. Data were collected every 6 s before and every 1 s after agonist stimulation. […] Agonist responses were quantified using the amplitudes of the fluorescence peaks. […] Calcium traces were determined in triplicate of mock-transfected cells stimulated with the same concentration of tastant.

EC50: 3 mM
SMILES: CC1=CC(=O)NS(=O)(=O)O1 [Acesulfame K]
